In ChEMBL document CHEMBL1255252, “E240V substitution increases catalytic efficiency toward ceftazidime in a new natural TEM-type extended-spectrum beta-lactamase, TEM-149, from Enterobacter aerogenes and Serratia marcescens clinical isolates” (2008):

Columns and labels:
[1] = Activity of Beta-lactamase TEM-149 expressed in Escherichia coli HB101
[2] = Ratio of Kcat to Km for Beta-lactamase TEM-149 expressed in Escherichia coli HB101
[3] = Activity of Beta-lactamase TEM-149 T182M mutant expressed in Escherichia coli HB101
[4] = Ratio of Kcat to Km for Beta-lactamase TEM-149 T182M mutant expressed in Escherichia coli HB101
[5] = Activity of Beta-lactamase TEM-10
[6] = Ratio of Kcat to Km for Beta-lactamase TEM-10

O=C(Cc1cccs1)N[C@@H]1C(=O)N2C(C(=O)O)=C(/C=C/c3ccc([N+](=O)[O-])cc3[N+](=O)[O-])CS[C@H]12
kcat [1]: 7.4 s⁻¹ | kcat/Km [2]: 370000 M⁻¹ s⁻¹ | Km [3]: 25 µM | kcat [3]: 26 s⁻¹ | kcat/Km [4]: 1.04e+06 M⁻¹ s⁻¹ | Km [5]: 47 µM | kcat [5]: 59 s⁻¹ | kcat/Km [6]: 1.25e+06 M⁻¹ s⁻¹
